Source: patent publication US11214540B2, “Compositions for treating neurodegenerative diseases” (COGNITION THERAPEUTICS, INC., priority 2017, dated 2022)

Assay: Mouse liver microsome (MLM) stability
Details: microsomes

COc1cc(CCC(C)NCc2ccc(C(F)(F)F)cc2)ccc1O (stereo not shown) [4-(3-(4-(trifluoromethyl)benzylamino)butyl)-2-methoxyphenol, reference compound]
half-life: 16 min
